# Experimental melting point values from OPERA 2.9

From the experimental data distributed with OPERA 2.9.

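The OPERA project collected these measurements from public sources as training and test data for property models. A listed value is a point estimate from one report or more. Conditions of the individual experiments are not part of the data. The measured form (salt, isomer or mixture) is not always the one drawn. Some upstream entries may be estimates or bounds without being marked so.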

Melting points are in °C. The databases behind each value are named after "via".

{"smiles": "O=[N+]([O-])c1cc(S(=O)(=O)Cl)ccc1O", "MP (°C)": "53", "via": "OCHEM"}
{"smiles": "Cc1[nH]c(=S)oc1C", "MP (°C)": "133", "via": "OCHEM"}
{"smiles": "COc1ccc(S(=O)(=O)Cl)cc1NC(C)=O", "MP (°C)": "146", "via": "OCHEM"}
{"smiles": "COc1ccc(-c2nc(N)sc2-c2ccc(OC)cc2)cc1", "MP (°C)": "208", "via": "OCHEM"}
{"smiles": "Nc1nc(-c2ccc(Oc3ccccc3)cc2)cs1", "MP (°C)": "196", "via": "OCHEM"}
{"smiles": "Cc1ncncc1C(=O)O", "MP (°C)": "175", "via": "OCHEM"}
{"smiles": "COC(=O)c1c(-c2ccccc2Cl)csc1N", "MP (°C)": "94", "via": "OCHEM"}
{"smiles": "O=c1cc(-c2ccccc2)c2ccccc2[nH]1", "MP (°C)": "264", "via": "OCHEM"}
{"smiles": "CCCCCCCCCCCC(=O)OCC(C)(C)C=NCCOCCO", "MP (°C)": "-16.48", "via": "eChemPortal"}
{"smiles": "NC(=O)c1cc(N)cc(C(N)=O)c1", "MP (°C)": "247", "via": "OCHEM"}
{"smiles": "NNC(=O)c1n[nH]c(=O)c2ccccc12", "MP (°C)": "240", "via": "OCHEM"}
{"smiles": "CC(O)c1nc2ccccc2s1", "stereo": "stereo not given", "MP (°C)": "62", "via": "OCHEM"}
{"smiles": "Cc1[nH]ncc1[N+](=O)[O-]", "MP (°C)": "132.5", "via": "OCHEM"}
{"smiles": "CNS(=O)(=O)c1cccc(CN)c1", "MP (°C)": "130", "via": "OCHEM"}
{"smiles": "Nc1ccccc1C(=O)Nc1cccc(Cl)c1", "MP (°C)": "133", "via": "OCHEM"}
{"smiles": "Nn1c(COc2ccccc2)n[nH]c1=S", "MP (°C)": "165", "via": "OCHEM"}
{"smiles": "COc1ccc(C(C)=O)c2ccccc12", "MP (°C)": "65", "via": "OCHEM"}
{"smiles": "O=C1NC(=O)N(C2CC2)C1=O", "MP (°C)": "116", "via": "OCHEM"}
{"smiles": "CN1C(=O)CC(C(=O)O)c2ccccc21", "stereo": "stereo not given", "MP (°C)": "163", "via": "OCHEM"}
{"smiles": "NC(=O)CNc1ccccc1", "MP (°C)": "140", "via": "OCHEM"}
{"smiles": "O=Cc1ccc(OCCCC(F)(F)C(F)(F)C(F)(F)C(F)(F)C(F)(F)C(F)(F)C(F)(F)C(F)(F)F)cc1", "MP (°C)": "62", "via": "ChemicalBook"}
{"smiles": "O=C(O)CCCSc1ccccc1", "MP (°C)": "67", "via": "OCHEM"}
{"smiles": "Cc1cc(-c2ccccc2)nc(=S)[nH]1", "MP (°C)": "209", "via": "OCHEM"}
{"smiles": "O=C(O)CN1C(=O)c2cc(Cl)c(Cl)cc2C1=O", "MP (°C)": "310", "via": "OCHEM"}
{"smiles": "CC(Cl)C(=O)c1ccc(C(C)(C)C)cc1", "stereo": "stereo not given", "MP (°C)": "19", "via": "OCHEM"}
{"smiles": "Cc1nc(C=O)c2ccccn12", "MP (°C)": "116", "via": "OCHEM"}
{"smiles": "CCCOc1ccc(C=O)cc1OCC", "MP (°C)": "37", "via": "OCHEM"}
{"smiles": "CCOC(=O)C1CN(Cc2ccccc2)CCC1=O", "stereo": "stereo not given", "MP (°C)": "162", "via": "OCHEM"}
{"smiles": "O=C(O)COc1ccc(F)c(Cl)c1", "MP (°C)": "107", "via": "OCHEM"}
{"smiles": "CC1Oc2ccccc2NC1=O", "stereo": "stereo not given", "MP (°C)": "143", "via": "OCHEM"}
{"smiles": "CCCC[OH+][B-](F)(F)F", "MP (°C)": "-101", "via": "eChemPortal"}
{"smiles": "Nc1ccnn1Cc1ccncc1", "MP (°C)": "220", "via": "OCHEM"}
{"smiles": "Cc1nc(-c2ccccc2)cs1", "MP (°C)": "53.5", "via": "OCHEM"}
{"smiles": "NNc1cnccn1", "MP (°C)": "111", "via": "OCHEM"}

Repeated from above, the 2 entries with the highest MP:

{"smiles": "O=C(O)CN1C(=O)c2cc(Cl)c(Cl)cc2C1=O", "MP (°C)": "310", "via": "OCHEM"}
{"smiles": "O=c1cc(-c2ccccc2)c2ccccc2[nH]1", "MP (°C)": "264", "via": "OCHEM"}